Target: T1, Human HHLA2-mIgG2a fusion protein (human; mouse, UniProt Q9UM44 23-344, limits assumed)
T1 construct: also called HHLA2-Ig; HHLA2-mouse IgG2a; not shown: mutated at IgG2a L235E, E318A, K320A, K322A
T1 sequence: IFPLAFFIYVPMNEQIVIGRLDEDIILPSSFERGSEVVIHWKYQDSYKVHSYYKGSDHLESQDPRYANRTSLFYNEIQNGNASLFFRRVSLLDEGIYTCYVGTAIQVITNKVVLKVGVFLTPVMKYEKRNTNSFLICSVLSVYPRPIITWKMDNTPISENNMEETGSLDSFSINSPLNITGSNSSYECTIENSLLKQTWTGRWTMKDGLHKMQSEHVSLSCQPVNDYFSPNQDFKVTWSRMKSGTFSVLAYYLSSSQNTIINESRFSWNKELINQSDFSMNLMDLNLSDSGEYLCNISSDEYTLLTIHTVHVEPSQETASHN
Assay: cell microarray on transfected HEK293 cells, HHLA2-mIgG2a probe, AF647 anti-mouse IgG detection
Procedure: A library of ˜5500 full length cDNA clones covering more than 3,500 different plasma membrane proteins was arrayed in duplicate across 13 microarray slides (“slide sets”). Human HEK293 cells were grown above the cDNA clones and reverse-transfected. An expression vector (pIRES-hEGFR-IRES-ZsGreen1) was spotted in quadruplicate on every slide and was used to ensure that a minimal threshold of transfection efficiency had been achieved or exceeded on every slide.
Two replicate slides were screened for each of the 13 slide sets. Fluorescent images were analyzed and quantitated (for transfection efficiency) using ImageQuant software (GE). A protein ‘hit’ was defined as duplicate spots showing a raised signal compared to background levels. This was achieved by visual inspection using the images gridded on the ImageQuant software.

binding result: no binding (tested: 20 ug/ml)
B1: PD-1 (receptor, UniProt Q15116 25-288, looked up)
chain: LDSPDRPWNPPTFSPALLVVTEGDNATFTCSFSNTSESFVLNWYRMSPSNQTDKLAAFPEDRSQPGQDCRFRVTQLPNGRDFHMSVVRARRNDSGTYLCGAISLAPKAQIKESLRAELRVTERRAEVPTAHPSPSPRPAGQFQTLVVGVVGGLLGSLVLLVWVLAVICSRAARGTIGARRTGQPLKEDPSAVPVFSVDYGELDFQWREKTPEPPVPCVPEQTEYATIVFPSGMGTSSPARRGSADGPRSAQPLRPEDGHCSWPL
notes: whole, on cells

From patent US20250388702A1 (Dana-Farber, published 2025)
